Patent US11879021B2, “Cyclic peptides and uses thereof” (UNIVERSITÉ DE MONTRÉAL, priority 2016, dated 2024)

Sequences of proteins named here, by UniProt entry; tags and fusion partners are left off. A change or cut given only in a name is not applied to a line headed by its entry.
UniProt Q07969: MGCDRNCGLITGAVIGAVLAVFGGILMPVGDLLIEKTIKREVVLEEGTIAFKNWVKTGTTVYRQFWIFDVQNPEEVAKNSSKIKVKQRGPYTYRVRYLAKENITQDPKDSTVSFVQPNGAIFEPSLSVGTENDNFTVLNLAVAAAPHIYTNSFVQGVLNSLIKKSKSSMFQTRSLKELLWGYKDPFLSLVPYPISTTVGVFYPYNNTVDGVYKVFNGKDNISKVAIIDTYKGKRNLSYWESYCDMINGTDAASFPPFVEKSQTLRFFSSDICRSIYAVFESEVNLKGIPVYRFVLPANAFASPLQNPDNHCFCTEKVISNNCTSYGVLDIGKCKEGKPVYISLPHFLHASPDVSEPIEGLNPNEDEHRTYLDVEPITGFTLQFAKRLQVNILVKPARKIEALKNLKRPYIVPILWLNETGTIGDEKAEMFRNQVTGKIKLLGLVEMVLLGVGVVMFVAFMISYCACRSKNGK

Biological target: T1, CD36 (Rattus norvegicus, UniProt Q07969)
T1 construct: from tissue; host or cells: Heart (cardiac membranes) of Sprague Dawley rats from Charles River
Assay: Competition binding of photoactivatable [125I]-Tyr-Bpa-Ala-Hexarelin to CD36 in rat cardiac membranes
Details: competition with [125I]-Tyr-Bpa-Ala-Hexarelin, rat heart membranes; read-out: IC50 (μM), binding affinity for CD36
Description: Hearts from Sprague Dawley rats (300-325 g) from Charles River were cut into small pieces and homogenized with a Polytron® at low speed, 3×15 sec in buffer A (10 mM NaHCO3, 5 mM NaN3, 10 μM Pefabloc®, 0.1 μM Aprotinin, 1 μM Pepstatin A, 1 μM Leupeptin, pH 7.0) at a concentration of […] of tissue. The homogenate was first centrifuged at 8,700×g for 20 min in a Sorvall® centrifuge and the supernatant was collected on ice. The pellet was resuspended and re-homogenized with a Glass-Teflon® Potter by 5 strokes. This homogenate was recentrifuged at 8,700×g for 10 min and the resulting supernatant was combined with the first collected supernatant. The combined supernatant was centrifuged at 35,000×g for 20 min. The pellet fraction obtained was resuspended in Buffer B (20 mM Tris-maleate, 0.6M KCl, pH 6.8) in a volume corresponding to 20 mL/g of fresh tissue using a glass homogenizer with a Teflon pestle. The resulting suspension was centrifuged again at 35,000×g for 60 min. and the pellet fraction obtained was resuspended in Buffer C (10 mM Tris/HCl buffer pH 7.4) and thoroughly homogenized in a glass with a Teflon® pestle (20 ml/g of fresh tissue). This suspension was submitted to another centrifugation at 35,000×g for 60 min. […] Protein concentration was determined using the bicinchoninic acid (BCA) method, employing BSA as standard. […]

With `Cc1[nH]c2ccccc2c1C[C@@H](NC(=O)[C@@H](N)Cc1cnc[nH]1)C(=O)N[C@@H](C)C(=O)N[C@@H](Cc1c[nH]c2ccccc12)C(=O)N[C@H](Cc1ccccc1)C(=O)N[C@@H](CCCCN)C(N)=O` [Hexarelin, reference compound] the IC50 was 0.5 µM.
